Measurements as given in ChEMBL document CHEMBL1759916, “Bicyclo[2.2.2]octyltriazole inhibitors of 11β-hydoxysteroid dehydrogenase type 1. Pharmacological agents for the treatment of metabolic syndrome” (Bioorg Med Chem Lett, 2011).

Sequences of proteins named here, by UniProt entry; tags and fusion partners are left off. A change or cut given only in a name is not applied to a line headed by its entry.
UniProt P28845: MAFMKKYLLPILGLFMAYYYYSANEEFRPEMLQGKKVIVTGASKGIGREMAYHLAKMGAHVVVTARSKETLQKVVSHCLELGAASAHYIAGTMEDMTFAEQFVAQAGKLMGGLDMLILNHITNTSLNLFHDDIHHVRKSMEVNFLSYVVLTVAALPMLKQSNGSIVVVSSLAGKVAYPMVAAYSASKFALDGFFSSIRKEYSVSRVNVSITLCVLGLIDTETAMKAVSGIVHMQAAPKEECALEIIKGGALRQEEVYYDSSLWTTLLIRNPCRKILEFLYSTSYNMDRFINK

Tests used:
[1] = biological target: T1, 11-beta-hydroxysteroid dehydrogenase type 2 (Mus musculus, UniProt P51661); assay: Inhibition of mouse 11beta-HSD2 expressed in CHO-K1 cells assessed as conversion of [3H]-cortisol to [3H]-cortisone by scintillation proximity assay; format: cell-based
T1 sequence (P51661 whole entry): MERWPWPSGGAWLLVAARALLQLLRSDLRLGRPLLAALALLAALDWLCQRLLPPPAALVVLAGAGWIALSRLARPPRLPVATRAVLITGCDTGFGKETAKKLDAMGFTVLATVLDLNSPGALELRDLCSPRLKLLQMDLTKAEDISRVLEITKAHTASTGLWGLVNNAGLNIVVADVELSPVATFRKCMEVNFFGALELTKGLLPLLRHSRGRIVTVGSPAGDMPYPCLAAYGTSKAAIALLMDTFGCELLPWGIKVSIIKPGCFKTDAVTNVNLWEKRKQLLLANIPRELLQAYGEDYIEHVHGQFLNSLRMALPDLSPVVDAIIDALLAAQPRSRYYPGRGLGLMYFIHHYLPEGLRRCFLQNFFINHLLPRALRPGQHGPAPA
How it was run: (§1)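 Scintillation proximity assay (SPA). IC50 values are the average of two determinations.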

[2] = biological target: 11-beta-hydroxysteroid dehydrogenase 1 (Homo sapiens, UniProt P28845); assay: Inhibition of human 11beta-HSD1 expressed in CHO-K1 cells assessed as conversion of [3H]-cortisone to [3H]-cortisol by scintillation proximity assay; format: cell-based; how it was run: as §1

IC50 [1] [nM] | IC50 [2] [nM] | SMILES
190 | – | CC(O)CCCC12CCC(c3nnc4n3CCCCCC4)(CC1)CC2 (stereo not drawn)
> 4000 | – | Cn1c(-c2ccccc2C(F)(F)F)nnc1C12CCC(COc3ccc(Cl)cc3)(CC1)CC2
– | 140 | CCS(=O)(=O)CCC12CCC(c3nnc(-c4ccccc4F)n3C)(CC1)CC2
